The numbers were not newly measured in patent publication US20240408145A1, “Gene Therapy” (Ospedale San Raffaele S.r.l., priority 2021, published 2024), which cites them from elsewhere.

Chains of the proteins cited; added tags and fusions are not shown.
UniProt P27361, whole entry, species assumed: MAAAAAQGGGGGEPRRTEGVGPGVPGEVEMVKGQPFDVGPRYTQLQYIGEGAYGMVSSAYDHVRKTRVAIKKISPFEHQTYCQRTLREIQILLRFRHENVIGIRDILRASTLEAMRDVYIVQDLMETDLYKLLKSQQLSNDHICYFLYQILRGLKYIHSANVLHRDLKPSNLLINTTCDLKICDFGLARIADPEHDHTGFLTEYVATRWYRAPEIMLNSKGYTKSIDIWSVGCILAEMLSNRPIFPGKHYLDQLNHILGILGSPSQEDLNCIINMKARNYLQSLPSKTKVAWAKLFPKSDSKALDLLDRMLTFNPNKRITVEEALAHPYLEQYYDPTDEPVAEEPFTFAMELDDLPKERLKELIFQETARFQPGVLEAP
UniProt P28482, whole entry, species assumed: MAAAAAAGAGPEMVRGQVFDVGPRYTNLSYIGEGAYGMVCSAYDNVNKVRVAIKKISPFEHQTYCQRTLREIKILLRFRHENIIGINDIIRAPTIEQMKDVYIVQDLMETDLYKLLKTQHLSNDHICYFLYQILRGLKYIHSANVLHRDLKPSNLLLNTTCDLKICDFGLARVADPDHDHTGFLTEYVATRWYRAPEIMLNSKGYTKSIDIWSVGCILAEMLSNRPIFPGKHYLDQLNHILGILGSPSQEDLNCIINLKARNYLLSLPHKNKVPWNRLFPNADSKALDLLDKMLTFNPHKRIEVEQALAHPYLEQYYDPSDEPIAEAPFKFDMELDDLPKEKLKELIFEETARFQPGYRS

Data set [1] deals with ERK1 (Homo sapiens, UniProt P27361). The note with it: cited from earlier work.
The target of data set [2] is ERK2 (Homo sapiens, UniProt P28482). The note with it: cited from earlier work.

Each structure is given as a SMILES string.

In the case of `Nc1n[nH]c2nnc(-c3c(-c4ccccc4)nn4ccccc34)cc12` [FR180204, 5-(2-Phenyl-pyrazolo[1,5-a]pyridin-3-yl)-1H-pyrazolo[3,4-c]pyridazin-3-ylamine], the IC50 in data set [1] is 0.31 µM; in data set [2], 0.14 µM.
